Values of other authors as cited in US4520134A, “N-alkyl-4'-hydroxyacetanilides, pharmaceutical compositions comprising them and their use” (priority 1984, dated 1985).

Details: man and experimental animals; cited from earlier work

## OCC(S)CS (stereo not shown) [dimethlymercaptol]
  protection against acetaminophen hepatotoxicity: varying degrees of protection
